One molecule from patent US8653298B2, “Biphenyl acetate, preparation and uses thereof” (Shijiazhuang Yiling Pharmaceutical Co., Ltd., priority 2006, dated 2014) can be followed below.

Counter-ions that a name gives are not always drawn.

The test system of this data set is 2% red blood cell's suspending liquid. Nature of the data set: hemolytic testing outside the body (visual). The data set is classed as cell-based, rabbit. Conditions: high concentration 1.88 mg/ml.

For `O=C(O)Cc1ccc(-c2ccccc2)cc1` [biphenyl acetic ammonia butantriol salt], the “blood absorbing reaction within 3 hours” value is listed as “no blood absorbing reaction”.
